The Ki is the equilibrium dissociation constant of an inhibitor or competing ligand from its target. What is called IC50 is the concentration needed to halve the response being measured.

Sequences of proteins named here, by UniProt entry; tags and fusion partners are left off. A line that says so, or that is headed by a name, gives the form on record, which may keep a tag or linker.
UniProt Q15858, other isoform, or with tags, fused parts or gaps: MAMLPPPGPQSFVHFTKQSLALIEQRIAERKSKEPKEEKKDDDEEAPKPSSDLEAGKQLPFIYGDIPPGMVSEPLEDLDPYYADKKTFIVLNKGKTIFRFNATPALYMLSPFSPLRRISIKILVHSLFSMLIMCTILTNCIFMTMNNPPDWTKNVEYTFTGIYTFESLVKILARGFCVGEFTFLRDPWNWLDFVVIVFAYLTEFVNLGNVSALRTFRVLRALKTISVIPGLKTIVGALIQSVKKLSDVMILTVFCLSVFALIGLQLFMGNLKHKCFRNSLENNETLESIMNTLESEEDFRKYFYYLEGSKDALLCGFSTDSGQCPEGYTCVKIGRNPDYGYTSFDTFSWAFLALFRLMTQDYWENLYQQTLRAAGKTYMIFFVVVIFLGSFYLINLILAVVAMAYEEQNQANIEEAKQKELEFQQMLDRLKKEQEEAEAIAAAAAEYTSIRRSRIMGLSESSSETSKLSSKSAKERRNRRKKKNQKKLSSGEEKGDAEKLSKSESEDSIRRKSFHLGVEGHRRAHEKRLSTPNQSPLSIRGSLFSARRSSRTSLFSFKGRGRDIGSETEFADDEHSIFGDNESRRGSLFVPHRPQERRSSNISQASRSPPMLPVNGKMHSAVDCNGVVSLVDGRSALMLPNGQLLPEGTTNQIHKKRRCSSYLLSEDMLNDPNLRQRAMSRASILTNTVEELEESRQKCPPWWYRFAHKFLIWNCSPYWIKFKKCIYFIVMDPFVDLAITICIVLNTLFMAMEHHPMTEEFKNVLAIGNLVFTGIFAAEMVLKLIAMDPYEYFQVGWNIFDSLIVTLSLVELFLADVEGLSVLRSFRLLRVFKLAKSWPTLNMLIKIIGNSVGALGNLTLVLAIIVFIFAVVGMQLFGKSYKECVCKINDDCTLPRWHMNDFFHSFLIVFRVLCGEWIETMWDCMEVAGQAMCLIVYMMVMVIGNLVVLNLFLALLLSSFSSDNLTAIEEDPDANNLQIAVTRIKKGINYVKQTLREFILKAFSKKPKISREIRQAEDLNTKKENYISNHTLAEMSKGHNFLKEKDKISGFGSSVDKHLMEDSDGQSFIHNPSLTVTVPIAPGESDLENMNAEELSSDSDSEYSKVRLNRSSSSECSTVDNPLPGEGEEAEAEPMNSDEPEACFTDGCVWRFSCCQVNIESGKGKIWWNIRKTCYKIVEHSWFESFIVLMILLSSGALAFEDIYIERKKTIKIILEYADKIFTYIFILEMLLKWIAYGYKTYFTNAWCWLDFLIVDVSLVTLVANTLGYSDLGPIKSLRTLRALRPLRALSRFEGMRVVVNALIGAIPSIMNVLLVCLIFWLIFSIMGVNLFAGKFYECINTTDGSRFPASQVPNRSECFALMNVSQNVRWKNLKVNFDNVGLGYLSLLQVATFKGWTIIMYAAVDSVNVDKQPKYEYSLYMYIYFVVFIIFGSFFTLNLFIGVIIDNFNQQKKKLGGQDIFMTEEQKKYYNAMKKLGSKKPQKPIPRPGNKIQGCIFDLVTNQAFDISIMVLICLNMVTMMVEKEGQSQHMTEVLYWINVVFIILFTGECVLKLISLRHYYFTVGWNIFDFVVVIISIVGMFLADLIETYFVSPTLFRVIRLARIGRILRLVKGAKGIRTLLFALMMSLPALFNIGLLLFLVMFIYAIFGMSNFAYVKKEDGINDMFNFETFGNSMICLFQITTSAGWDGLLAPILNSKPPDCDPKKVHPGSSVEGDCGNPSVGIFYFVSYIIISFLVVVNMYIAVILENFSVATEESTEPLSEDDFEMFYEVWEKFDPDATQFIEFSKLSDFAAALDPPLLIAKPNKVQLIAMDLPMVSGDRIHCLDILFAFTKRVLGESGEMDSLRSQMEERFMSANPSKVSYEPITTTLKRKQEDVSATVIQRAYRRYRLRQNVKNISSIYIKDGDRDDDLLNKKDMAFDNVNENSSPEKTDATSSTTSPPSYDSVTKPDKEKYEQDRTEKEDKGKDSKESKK

The target of one test is hNav1.7 (Homo sapiens (Human), UniProt Q15858). Briefly: Electrophysiology (EP) assay, whole-cell patch clamp. The format is cell-based. To be noted: read-out: EP Nav1.7 Ki. For orientation: The patch-clamp technique gives a direct electrical read-out from membranes.
Another test deals with human Nav1.7 (Homo sapiens (Human), UniProt Q15858). Put plainly: FLIPR or FLIPR TETRA sodium dye assay with KCl and test article pre-incubation. The format is cell-based. Conditions: read-out: FLIPR Nav1.7 IC50 (μM) ± SEM. On the procedure: Recombinant Nav1.7 Cell Line: In vitro assays were performed in a recombinant cell line expressing cDNA encoding the alpha subunit (Nav1.7, SCN9a, PN1, NE) of human Nav1.7 (Accession No. NM_002977). The cell line was provided by investigators at Yale University (Cummins et al, J. Neurosci. 18(23): 9607-9619 (1998)). For dominant selection of the Nav1.7-expressing clones, the expression plasmid co-expressed the neomycin resistance gene. The cell line was constructed in the human embryonic kidney cell line, HEK293, under the influence of the CMV major late promoter, and stable clones were selected using limiting dilution cloning and antibiotic selection using the neomycin analogue, G418. […]
CoroNa™ Green AM Na^+ Dye for Primary Fluorescence Assay: The fluorescence indicator used in the primary fluorescence assay was the cell permeant version of CoroNa™ Green (Invitrogen, Molecular Probes, Eugene, Oreg.), a dye that emits light in the fluorescence range (Harootunian et al., J. Biol. Chem. 264(32):19458-19467 (1989)). […] Cells expressing Nav1.7 or other sodium channels were loaded with the CoroNa™ Green dye immediately in advance of the fluorescence assay, and then, after agonist stimulation, the mobilization of Na^+ ions was detected as the Na^+ ions flowed from the extracellular fluid into the cytoplasm through the activated sodium channel pores. […]

With `N#Cc1ccc(Oc2ccc(-n3nc(C(=O)NCC(O)CO)c4ccccc43)cc2)cc1` (centres unmarked) [Compound 159, 1-(4-(4-Cyanophenoxy)phenyl)-N-(2,3-dihydroxypropyl)-1H-indazole-3-carboxamide], the inhibition constant Ki on hNav1.7 stood at 930 nM. Also, the 50% inhibitory concentration (IC50) on human Nav1.7 worked out at 0.431 ± 0.059 µM.

The values are drawn from US9212139B2, “Aryl substituted indoles and their use as blockers of sodium channels” (Purdue Pharma, L.P., priority 2010, dated 2015).
